Yeast mating assay 2: variants of the scFv Ab-95

Source: Engelhart et al. 2022 (doi:10.1038/s41597-022-01779-4), MIT Lincoln Laboratory and A-Alpha Bio; data file from the FLAb repository.

The target is the same throughout: PDVDLGDISGINAS, from the HR2 region of SARS-CoV-2 spike.

Ab-95 is the parent antibody, in scFv form: VH, then a (GGGGS)3 linker, then VL. The heavy chain is unchanged in all variants.
VH: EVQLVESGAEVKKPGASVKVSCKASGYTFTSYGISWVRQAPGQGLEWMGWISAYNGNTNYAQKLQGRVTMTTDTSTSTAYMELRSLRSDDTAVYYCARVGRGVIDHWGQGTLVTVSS
VL: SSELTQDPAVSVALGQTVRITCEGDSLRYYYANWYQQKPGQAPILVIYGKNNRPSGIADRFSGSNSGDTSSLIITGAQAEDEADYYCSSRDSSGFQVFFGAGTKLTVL

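The starting antibody came from a phage panning campaign against this peptide. AAYL52 was designed without a model: most single CDR substitutions and a random sample of double and triple ones. The assay is AlphaSeq: two haploid yeast populations carry antibody and antigen on their surface. Pairs that bind mate more often; barcode pairs of the diploids are counted by sequencing. Read counts were normalised to the haploid input and turned into Kd by a linear fit to BCL2-family pairs of known affinity, for each replicate. Mating was done three times.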

The parent's light chain CDRs are EGDSLRYYYAN, GKNNRPS, SSRDSSGFQVF; each variant's own CDRs replace them letter for letter.
The read-out is the apparent dissociation constant on a log10 scale (nM): the lower, the stronger.
The mean shown is taken over the replicates in which the pair was detected.
Where no diploid with the target was found in that replicate, the entry reads "n.d.": below detection, most likely a poor binder, though not proof of it.
For reference, the parent read 2.31 as the reference entry and 2.25 as a member of this library.
Nonspecific signal, from three strains lacking the peptide, appeared in 28% of pairings of library AAYL52, centred on 3.91 (5% of these signals below 2.90); values are not corrected for it. The control count says in how many pairings with the empty strains this scFv gave a signal, with their mean in brackets.

| CDR-L1 | CDR-L2 | CDR-L3 | log10 Kd, replicates | mean log10 Kd (nM) | signal with controls |
|---|---|---|---|---|---|
| EGDSLTYYYAN | GKNNRPA | SSRDSSGFQVR | 2.23 2.52 2.42 | 2.39 | 4 of 9 (4.42) |
| EGDSLRYTYAN | GKNNRPS | SSRDSSGFMVD | 1.96 1.69 1.32 | 1.66 | 2 of 9 (3.14) |
| EGDSLLYRYAN | GKNNRPS | SSRDSSGFQVF | 2.32 2.08 2.03 | 2.14 | 5 of 9 (3.87) |
| EGDSLRYYYAN | GKWVRPY | SSRDSSGFQVF | n.d. 5.54 4.30 | 4.92 | 4 of 9 (4.02) |
| EGDSLGYYYAN | GKNNRKS | SSRDSSGFQVV | 4.06 3.58 4.39 | 4.01 | 4 of 9 (4.57) |
| ETDSLRYYYAN | GKNTRPS | SMRDSSGFQVF | 3.49 3.63 3.62 | 3.58 | 5 of 9 (3.49) |
| EGQSLRYYYAN | GKNNRPS | FSRDSSGFQTF | 2.24 1.91 2.07 | 2.07 | 1 of 9 (4.26) |
| EGDSLRYYYAN | GTNHRPS | SSRDASGFQVF | 2.89 2.90 2.55 | 2.78 | 5 of 9 (4.14) |
| EGDSRRYYYAN | GCNNRPS | SSRDSSGNQVF | 4.08 3.58 n.d. | 3.83 | 4 of 9 (3.70) |
| EGDSLRYYYAM | GKNNRPS | SSRDSSPSQVF | 4.12 4.53 n.d. | 4.32 | 7 of 9 (4.46) |
| EGDSCRYYPAN | GKNNCPS | SSRDSSGFQVF | 4.09 3.57 4.37 | 4.01 | 3 of 9 (3.39) |
| EGDSLRYHYAA | GKNNRPS | SSRDSSGFQMF | 4.29 2.84 4.46 | 3.86 | 4 of 9 (4.22) |
| NGDSLRYYYAN | GENNRPS | SSRDSSGFQVY | 1.86 1.70 1.65 | 1.74 | 5 of 9 (4.12) |
| EGDSLRYYYAN | GKNNRHS | SSRDSSGFQVG | 2.49 2.69 2.38 | 2.52 | 5 of 9 (4.23) |
| EGDSLRYYYIN | GKNNRPS | SLRDSSNFQVF | n.d. n.d. n.d. | n.d. | 1 of 9 (4.51) |
| EGDSLRYYYAN | GKNNRVS | SSRDSSGFQTM | n.d. 3.69 4.16 | 3.93 | 2 of 9 (3.01) |
| AGDSLRYYYAN | GKNNRMS | SSRDSSGFQVF | 1.97 1.90 1.61 | 1.83 | 3 of 9 (3.57) |
| EGDILRYYYAN | GKNNRPS | SSPDTSGFQVF | 3.41 n.d. n.d. | 3.41 | 3 of 9 (4.28) |
| EGDSLRYYSAN | GKLNRPS | SSVDSSGFQVF | 4.51 5.60 2.97 | 4.36 | 3 of 9 (3.65) |
| EGDKLRYYYAN | GKNNRPS | SSVSSSGFQVF | n.d. n.d. n.d. | n.d. | 5 of 9 (4.12) |
| EGDSLRVYYTN | GKNNRPS | SSRDVSGFQVF | 3.78 n.d. 2.72 | 3.25 | 3 of 9 (3.20) |
| EGASLRYYYAN | GPNNRPS | SSRDSYGFQVF | 3.48 3.16 3.28 | 3.31 | 4 of 9 (4.05) |
| ELDSLRYYYAN | GKNNRPS | SSRWDSGFQVF | n.d. n.d. n.d. | n.d. | 2 of 9 (4.30) |
| EYDSLRYYYAN | GKNWRPT | SSRDSSGFQVF | 4.58 3.85 n.d. | 4.22 | 0 of 9 |
| EGDSLIYYYAN | GKNNRPS | SSRDSSCHQVF | 3.00 n.d. n.d. | 3.00 | 2 of 9 (2.97) |
| EGDSLRYYYAN | GWNNRPS | SSRDGSGFQNF | 5.09 4.31 n.d. | 4.70 | 4 of 9 (4.29) |
| EGDPSRYYYAN | GKNNRPS | SSRDSSGSQVF | 3.42 2.80 n.d. | 3.11 | 3 of 9 (2.99) |
| TGDSLRYYYAN | QKNIRPS | SSRDSSGFQVF | 2.82 2.63 2.54 | 2.66 | 3 of 9 (4.39) |
| GGDSLRYYYAN | GKNSRPS | SSRDSSGHQVF | 2.46 2.77 2.59 | 2.61 | 0 of 9 |
| EGDSLRYYYAN | GKHNRPE | ISRDSSGFQVF | 3.21 n.d. n.d. | 3.21 | 1 of 9 (4.85) |
| EGDSLRYYYAN | GKKNRCS | NSRDSSGFQVF | 3.85 5.02 n.d. | 4.44 | 4 of 9 (3.04) |
| EGDSLDYYYAN | GKNNRPS | SSRDESGFQVF | 2.23 2.30 1.75 | 2.09 | 1 of 9 (3.40) |
| EGDSHRYYYAN | GINNRAS | SSRDSSGFQVF | 4.01 n.d. n.d. | 4.01 | 1 of 9 (4.27) |
| EGDSLRYYYAN | WKNNRAS | SSRDSSGFQVG | 4.06 3.78 n.d. | 3.92 | 4 of 9 (3.35) |
| EGDSLRMDYAN | GKNGRPS | SSRDSSGFQVF | 2.35 2.55 2.59 | 2.50 | 1 of 9 (3.26) |
| EGDSLRYYYAN | LKNNRPS | FSRDVSGFQVF | 4.29 3.45 n.d. | 3.87 | 5 of 9 (3.78) |
| EGDSLRYYTAN | GKINRPS | SSRDSKGFQVF | n.d. 4.35 n.d. | 4.35 | 1 of 9 (4.69) |
| EGDSLRYYYAN | GKCNEPP | SSRDSSGFQVF | 3.68 n.d. n.d. | 3.68 | 0 of 9 |
| EGDSLRYFYAN | GKNNRPS | SSRDSCGFQVF | n.d. 5.38 n.d. | 5.38 | 2 of 9 (3.55) |
| HGISLRYIYAN | GKNNRPS | SSRDSSGFQVF | 2.67 3.36 2.56 | 2.86 | 4 of 9 (3.98) |
| EGDSLRYSYAN | GKNNRPS | SSRDSRGFQVF | 1.44 1.40 0.85 | 1.23 | 3 of 9 (4.27) |
| KGDSLRYYYAN | GKNFDPS | SSRDSSGFQVF | 5.75 4.32 n.d. | 5.03 | 5 of 9 (3.93) |
| KGDSLRYYYAN | GKNNRPS | SSRCSSGFKVF | n.d. n.d. 4.03 | 4.03 | 0 of 9 |
| EGDSLRYYYAN | GKPNRPS | SSRDSSGFQVF | 3.01 n.d. n.d. | 3.01 | 1 of 9 (4.10) |
| EGDFLRYYYAN | GKNNRPS | SFRYSSGFQVF | n.d. 4.60 n.d. | 4.60 | 1 of 9 (4.44) |
| EGDSLRYYYAN | GKHNRYS | SSRDSSGFQLF | n.d. 5.15 n.d. | 5.15 | 0 of 9 |
| EGDSLRYYYAN | GKNNRPS | SSRDCSLFMVF | 3.22 3.53 2.57 | 3.11 | 1 of 9 (3.28) |
| EGDSGRYYKAN | GKLNRPS | SSRDSSGFQVF | 5.39 3.72 4.19 | 4.43 | 4 of 9 (3.72) |
| EGDSLRYYYAN | GKNNYPN | SSRDSSGFQKF | n.d. n.d. n.d. | n.d. | 2 of 9 (3.67) |
| DGDSLRYYYAN | GKNNRPS | SSRPSSGFQVF | 2.35 2.82 1.66 | 2.28 | 1 of 9 (4.64) |
| EGDSLRYYQAN | GKMNRPS | SSRDSFGFQVF | n.d. 4.19 n.d. | 4.19 | 3 of 9 (4.61) |